Measurements from PMC11756396, “Dynamic allostery in the peptide/MHC complex enables TCR neoantigen selectivity” (Nature Communications, 2025).

Assays:
[1] = test system: TCR4-expressing T cells co-cultured with HLA-A3+ antigen presenting cells (Cos-7); experiment: CD107a degranulation of TCR4-transduced T cells, peptide-pulsed HLA-A3+ APC (flow cytometry); settings: 6 h co-culture, E:T 1:1, mean of three replicates
[2] = test system: T cells; set-up: method as in 2 sources, one per row (each row's own in cited_ref): ref 5, ref 16 ||| ref 15 = [15]; PMID 35484264; doi:10.1038/s41591-022-01786-3; 15. Chandran, S. S. et al. Immunogenicity and therapeutic targeting of a public neoantigen derived from mutated PIK3CA. Nat. Med. 28 , 946–957 (2022). 10.1038/s41591-022-01786-3 PMC9117146 35484264; settings: numerous T cell clones; cited from earlier work

AHHGGWTTK [WT peptide]
CD107a, absolute frequency ([1]; peptide 1.00E-04 ug/mL): 1.567
CD107a, absolute frequency ([1]; peptide 1.00E-06 ug/mL): 1.573

MART-1: nonameric MART-1 tumor antigen presented by HLA-A2 [reference compound]
T cell responses [2]: measurable responses
